Assay results from PubChem BioAssay AID651800 (The Scripps Research Institute Molecular Screening Center, 2012).
The entries are a selection whose mix differs from that of the whole data set. Activity calls are given as the source filed them. Rule as the data show it: active = inhibition above about 19%; inactive = the rest.

Tested on: T-cell receptor (TCR)
Assay: small molecules blocking TCR binding to CD3 – biochemical, fluorescence, TAMRA-labeled TCR probe, primary screen (AID 651800);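 also: recombinant mutant TCR 2C K166C tagged with TAMRA read by polarization; 0% = receptor in buffer alone and 100% = receptor with positive control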
Conditions: at 9.4 µM, stronger effect = higher value

Structure (SMILES)	inhibition
CCC(=O)N(c1ccccc1)C1(COC)CCN(CCn2nnn(CC)c2=O)CC1	inactive: -10.9%
CCC(=O)N(c1ccccc1)C1(COC)CCN(CCc2cccs2)CC1	inactive: 4.41%
